Test results reported in ChEMBL document CHEMBL4828722, “The synthesis and bioactivity of pyrrolo[2,3-d]pyrimidine derivatives as tyrosine kinase inhibitors for NSCLC cells with EGFR mutations” (Eur J Med Chem, 2021).
Active and inactive are the calls of the source. The calls are words filed in the database; no cut-off is given here.

Tests used:
[1] = system: Epidermal growth factor receptor (Homo sapiens), P00533 [UNDEFINED MUTATION]; assay: Inhibition of […] EGFR Del E746/A750 mutant (unknown origin) at 2 nM pretreated with substrate for 10 mins followed by ATP addition measured after 60 mins by mobility shift assay relative to control
[2] = system: Epidermal growth factor receptor (Homo sapiens), P00533 [L858R]; assay: Inhibition of […] EGFR L858R mutant (unknown origin) at 2 nM pretreated with substrate for 10 mins followed by ATP addition measured after 60 mins by mobility shift assay relative to control
[3] = system: Epidermal growth factor receptor (Homo sapiens), P00533 [T790M]; assay: Inhibition of […] EGFR T790M mutant (unknown origin) at 2 nM pretreated with substrate for 10 mins followed by ATP addition measured after 60 mins by mobility shift assay relative to control
[4] = system: Epidermal growth factor receptor (Homo sapiens), P00533 [C797S]; assay: Inhibition of […] EGFR C797S mutant (unknown origin) at 2 nM pretreated with substrate for 10 mins followed by ATP addition measured after 60 mins by mobility shift assay relative to control
[5] = target: T1, Epidermal growth factor receptor (Homo sapiens, UniProt P00533); assay: Inhibition of wild type EGFR phosphorylation at Tyr992 residue in human HBE cells up to 5 uM incubated for 2 hrs by immunoblotting analysis; type: cell-based; settings: dose microM <=5, time 2.0 hrs
[6] = target: T1, Epidermal growth factor receptor; assay: Inhibition of wild type EGFR phosphorylation at Tyr1068 residue in human HBE cells up to 5 uM incubated for 2 hrs by immunoblotting analysis; type: cell-based; settings: dose microM <=5, time 2.0 hrs
[7] = target: T1, Epidermal growth factor receptor; assay: Inhibition of […] EGFR phosphorylation at Tyr992 residue in human NCI-H1975 cells at 0.1 to 5 uM incubated for 2 hrs by immunoblotting analysis; type: cell-based; settings: dose 0.1-5 µM
[8] = target: T1, Epidermal growth factor receptor; assay: Inhibition of […] EGFR phosphorylation at Tyr1068 residue in human NCI-H1975 cells at 0.1 to 5 uM incubated for 2 hrs by immunoblotting analysis; type: cell-based; settings: dose 0.1-5 µM
[9] = target: T1, Epidermal growth factor receptor; assay: Inhibition of […] EGFR phosphorylation at Tyr992 residue in human HCC827 cells at 0.1 to 5 uM incubated for 2 hrs by immunoblotting analysis; type: cell-based; settings: dose 0.1-5 µM
[10] = target: T1, Epidermal growth factor receptor; assay: Inhibition of […] EGFR phosphorylation at Tyr1068 residue in human HCC827 cells at 0.1 to 5 uM incubated for 2 hrs by immunoblotting analysis; type: cell-based; settings: dose 0.1-5 µM

SMILES: C=CC(=O)Nc1cccc(Oc2nc(Nc3ccc(N4CCN(C)CC4)c(F)c3)nc3[nH]ccc23)c1 [ABIVERTINIB]
- inhibition [1]: 45%
- inhibition [2]: 36%
- inhibition [3]: 94%
- inhibition [4]: 5.3%
- inhibition [5]: inactive
- inhibition [6]: inactive
- inhibition [7]: Active
- inhibition [8]: Active
- inhibition [9]: Active
- inhibition [10]: Active
